Reference: patent US20180185459

Biological target: T1, cofactor factor Va of the prothrombinase complex (endogenous, in human plasma), P12259
T1 chain 1: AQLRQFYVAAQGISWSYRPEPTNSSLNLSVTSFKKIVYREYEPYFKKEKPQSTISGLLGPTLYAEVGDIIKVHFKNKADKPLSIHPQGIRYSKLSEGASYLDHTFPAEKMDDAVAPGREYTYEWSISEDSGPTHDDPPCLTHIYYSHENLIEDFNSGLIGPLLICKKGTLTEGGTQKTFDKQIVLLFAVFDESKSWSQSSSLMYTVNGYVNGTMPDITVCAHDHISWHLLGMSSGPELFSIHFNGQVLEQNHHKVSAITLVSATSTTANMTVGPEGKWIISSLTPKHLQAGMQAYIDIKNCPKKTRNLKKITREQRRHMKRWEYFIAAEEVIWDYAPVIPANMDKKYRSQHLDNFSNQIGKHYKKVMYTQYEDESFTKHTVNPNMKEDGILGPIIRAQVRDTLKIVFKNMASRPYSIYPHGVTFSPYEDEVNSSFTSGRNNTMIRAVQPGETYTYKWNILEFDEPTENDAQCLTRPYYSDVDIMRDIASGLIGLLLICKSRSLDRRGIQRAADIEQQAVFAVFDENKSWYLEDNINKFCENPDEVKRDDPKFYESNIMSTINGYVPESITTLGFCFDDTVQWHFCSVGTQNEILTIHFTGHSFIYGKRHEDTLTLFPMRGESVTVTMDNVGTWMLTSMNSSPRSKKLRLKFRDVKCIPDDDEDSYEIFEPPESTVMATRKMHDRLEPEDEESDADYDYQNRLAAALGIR
T1 chain 2: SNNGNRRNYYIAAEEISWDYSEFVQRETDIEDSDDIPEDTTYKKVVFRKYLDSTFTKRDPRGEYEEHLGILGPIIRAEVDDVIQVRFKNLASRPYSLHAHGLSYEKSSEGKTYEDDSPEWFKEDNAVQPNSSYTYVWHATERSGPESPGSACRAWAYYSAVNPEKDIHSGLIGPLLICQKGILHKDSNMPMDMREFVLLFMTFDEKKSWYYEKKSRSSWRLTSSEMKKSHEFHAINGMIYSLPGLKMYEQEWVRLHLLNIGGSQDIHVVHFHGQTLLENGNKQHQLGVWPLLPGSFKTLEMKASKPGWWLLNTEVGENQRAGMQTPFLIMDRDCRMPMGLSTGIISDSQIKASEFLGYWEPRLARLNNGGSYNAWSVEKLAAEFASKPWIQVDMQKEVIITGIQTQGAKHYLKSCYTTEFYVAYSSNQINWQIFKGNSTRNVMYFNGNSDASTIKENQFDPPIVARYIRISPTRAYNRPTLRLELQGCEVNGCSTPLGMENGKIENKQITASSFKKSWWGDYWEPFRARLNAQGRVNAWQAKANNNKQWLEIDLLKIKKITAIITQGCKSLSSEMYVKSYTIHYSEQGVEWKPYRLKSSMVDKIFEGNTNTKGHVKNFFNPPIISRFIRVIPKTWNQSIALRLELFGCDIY

B1: EGR-Xa, active site inhibited full length human fXa (human plasma derived) (protein)
chain 1: ANSFLEEMKKGHLERECMEETCSYEEAREVFEDSDKTNEFWNKYKDGDQCETSPCQNQGKCKDGLGEYTCTCLEGFEGKNCELFTRKLCSLDNGDCDQFCHEEQNSVVCSCARGYTLADNGKACIPTGPYPCGKQTLER
chain 2: IVGGQECKDGECPWQALLINEENEGFCGGTILSEFYILTAAHCLYQAKRFKVRVGDRNTEQEEGGEAVHEVEVVIKHNRFTKETYDFDIAVLRLKTPITFRMNVAPACLPERDWAESTLMTQKTGIVSGFGRTHEKGRQSTRLKMLEVPYVDRNSCKLSSSFIITQNMFCAGYDTKQEDACQGDSGGPHVTRFKDTYFVTGIVSWGEGCARKGKYGIYTKVTAFLKWIDRSMKTRGLPKAKSHAPEVITSSPLK
  prothrombinase activity measured by thrombin generation in human plasma (RFU): IC50=26 nM
